According to patent US5990275:

Biological target: TAG-72 on bovine submaxillary mucin (bovine)
Assay: competition ELISA against biotin-labeled CC49 IgG

CC49/4-4-20 heterodimer Fv (fraction 5) (bispecific antibody)
fold higher protein concentration needed to displace the IgG than the CC49/212 single-chain Fv: 200 fold
